Assay results reported in PubChem BioAssay (NCI).
Some results for these compounds are left out of this collection, so the calls shown say nothing about other tests.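 A five-concentration, 48-hour dose response in 96-well plates underlies each endpoint, interpolated linearly between surrounding concentrations. Here, GI50 denotes the concentration required for 50% inhibition of growth. TGI: total growth inhibition.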

Key:
Test in all cases: NCI-60 cell line screen, 48 h
UACC-257 melanoma = tested on: UACC-257 melanoma
SF-268 CNS = tested on: SF-268 CNS
HCT-15 colon = tested on: HCT-15 colon
IGROV1 ovarian = tested on: IGROV1 ovarian
MCF7 breast = tested on: MCF7 breast
NCI-H226 lung = tested on: NCI-H226 lung
MDA-MB-435 = tested on: MDA-MB-435
RXF 393 renal = tested on: RXF 393 renal
TK-10 renal = tested on: TK-10 renal
SR leukemia = tested on: SR leukemia
MDA-N = tested on: MDA-N
COLO 205 colon = tested on: COLO 205 colon
K-562 leukemia = tested on: K-562 leukemia
HOP-62 NSCLC = tested on: HOP-62 NSCLC
UACC-62 melanoma = tested on: UACC-62 melanoma
BT-549 breast = tested on: BT-549 breast
NCI-H522 lung = tested on: NCI-H522 lung
RPMI-8226 leukemia = tested on: RPMI-8226 leukemia
PC-3 prostate = tested on: PC-3 prostate
DU-145 prostate = tested on: DU-145 prostate
ACHN renal = tested on: ACHN renal
SNB-19 CNS = tested on: SNB-19 CNS
HCC-2998 colon = tested on: HCC-2998 colon
KM12 colon = tested on: KM12 colon
A549 NSCLC = tested on: A549 NSCLC
EKVX NSCLC = tested on: EKVX NSCLC
SK-MEL-28 melanoma = tested on: SK-MEL-28 melanoma

For C=C(C)C#CC(O)(C(=O)OC1CN2CCC1CC2)C(C)C (stereo not drawn), the GI50 (UACC-257 melanoma) was > 100 µM, the TGI (UACC-257 melanoma) was > 100 µM and the GI50 (SF-268 CNS) was > 100 µM. The TGI (SF-268 CNS) was > 100 µM, the GI50 (HCT-15 colon) was > 100 µM and the TGI (HCT-15 colon) was > 100 µM. For the same compound, the GI50 (IGROV1 ovarian) was > 100 µM, the TGI (IGROV1 ovarian) was > 100 µM and the GI50 (MCF7 breast) was > 100 µM. The TGI (MCF7 breast) was > 100 µM, the GI50 (NCI-H226 lung) was > 100 µM and the TGI (NCI-H226 lung) was > 100 µM. For the same compound, the GI50 (MDA-MB-435) was > 100 µM, the TGI (MDA-MB-435) was > 100 µM and the GI50 (RXF 393 renal) was > 100 µM. The TGI (RXF 393 renal) was > 100 µM, the GI50 (TK-10 renal) was > 100 µM and the TGI (TK-10 renal) was > 100 µM. For the same compound, the GI50 (SR leukemia) was > 100 µM, the TGI (SR leukemia) was > 100 µM and the GI50 (MDA-N) was > 100 µM. For the same compound, the TGI (MDA-N) was > 100 µM, the GI50 (COLO 205 colon) was > 100 µM and the TGI (COLO 205 colon) was > 100 µM. For the same compound, the GI50 (K-562 leukemia) was > 100 µM, the TGI (K-562 leukemia) was > 100 µM and the GI50 (HOP-62 NSCLC) was > 100 µM. The TGI (HOP-62 NSCLC) was > 100 µM, the GI50 (UACC-62 melanoma) was > 100 µM and the TGI (UACC-62 melanoma) was > 100 µM. For the same compound, the GI50 (BT-549 breast) was > 100 µM, the TGI (BT-549 breast) was > 100 µM and the GI50 (NCI-H522 lung) was > 100 µM. For the same compound, the TGI (NCI-H522 lung) was > 100 µM, the GI50 (RPMI-8226 leukemia) was > 100 µM and the TGI (RPMI-8226 leukemia) was > 100 µM. For the same compound, the GI50 (PC-3 prostate) was > 100 µM, the TGI (PC-3 prostate) was > 100 µM and the GI50 (DU-145 prostate) was > 100 µM. The TGI (DU-145 prostate) was > 100 µM, the GI50 (ACHN renal) was > 100 µM and the TGI (ACHN renal) was > 100 µM. The GI50 (SNB-19 CNS) was > 100 µM, the TGI (SNB-19 CNS) was > 100 µM and the GI50 (HCC-2998 colon) was > 100 µM. The TGI (HCC-2998 colon) was > 100 µM, the GI50 (KM12 colon) was > 100 µM and the TGI (KM12 colon) was > 100 µM. For the same compound, the GI50 (A549 NSCLC) was > 100 µM, the TGI (A549 NSCLC) was > 100 µM and the GI50 (EKVX NSCLC) was > 100 µM. The TGI (EKVX NSCLC) was > 100 µM and the GI50 (SK-MEL-28 melanoma) was > 100 µM.
